Measurements reported in article PMC6010526, “In Silico Approaches Applied to the Study of Peptide Analogs of Ile-Pro-Ile in Relation to Their Dipeptidyl Peptidase IV Inhibitory Properties” (Frontiers in Endocrinology, 2018).

Sequences of proteins named here, by UniProt entry; tags and fusion partners are left off. A change or cut given only in a name is not applied to a line headed by its entry.
UniProt P22411: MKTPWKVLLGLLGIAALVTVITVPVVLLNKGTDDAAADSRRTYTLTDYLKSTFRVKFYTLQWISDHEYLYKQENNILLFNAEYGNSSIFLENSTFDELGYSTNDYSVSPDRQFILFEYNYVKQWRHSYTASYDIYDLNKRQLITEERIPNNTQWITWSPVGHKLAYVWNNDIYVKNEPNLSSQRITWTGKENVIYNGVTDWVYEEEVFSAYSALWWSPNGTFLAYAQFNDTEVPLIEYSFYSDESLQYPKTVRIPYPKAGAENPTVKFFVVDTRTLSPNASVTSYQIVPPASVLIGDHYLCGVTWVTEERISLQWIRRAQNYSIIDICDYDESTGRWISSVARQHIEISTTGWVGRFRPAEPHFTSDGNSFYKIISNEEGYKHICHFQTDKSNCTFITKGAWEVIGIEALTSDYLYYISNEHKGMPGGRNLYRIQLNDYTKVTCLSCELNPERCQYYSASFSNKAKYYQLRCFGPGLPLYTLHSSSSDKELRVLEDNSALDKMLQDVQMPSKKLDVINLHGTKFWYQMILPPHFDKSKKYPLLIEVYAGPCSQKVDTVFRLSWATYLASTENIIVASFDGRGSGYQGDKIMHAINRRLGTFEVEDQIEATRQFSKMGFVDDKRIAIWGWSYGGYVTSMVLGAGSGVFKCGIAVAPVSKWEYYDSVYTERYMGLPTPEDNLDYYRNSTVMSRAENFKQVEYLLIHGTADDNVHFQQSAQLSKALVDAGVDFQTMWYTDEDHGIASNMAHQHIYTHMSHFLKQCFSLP

Experiments:
[1] = molecular target: T1, porcine DPP-IV (Sus scrofa, UniProt P22411); test: Stability of peptides to hydrolysis by DPP-IV (LC-MS/MS); conditions: for Hydrolysis by DPP-IV (stability), in words: 30 min incubation with DPP-IV; for Peptide hydrolyzed by DPP-IV: peptide at 1/4 of IC50, 30 min at 37°C, Tris-HCl buffer pH 8.0
[2] = molecular target: T1, porcine DPP-IV; test: DPP-IV inhibition assay with Gly-Pro-pNA substrate; assay type: biochemical; parameters: purchased Sigma Aldrich (Dublin, Ireland); conditions: for IC50: porcine DPP-IV, Gly-Pro-pNA 0.200 mM, 37°C, n = 3, read-out: Experimental DPP-IV IC50
Experimental: Peptides were dispersed in HPLC grade water at 50 and 500 µM (final concentration). The DPP-IV inhibition assay was carried out in triplicate as outlined by Nongonierma and FitzGerald ([18]). Briefly, samples (25 μL) were mixed with Gly-Pro-pNA (final concentration 0.200 mM) and DPP-IV (final concentration 0.0025 U mL^−1) in a 96-well microplate (Sarstedt, Dublin, Ireland). The microplate was incubated at 37°C for 60 min in a microplate reader (Biotek Synergy HT, Winooski, VT, USA) and absorbance was monitored at 405 nm.
Dose–response curves were determined for peptides displaying a percentage of inhibition > 50% at 500 µM. Peptides were diluted in HPLC water at concentrations ranging from 0.37 to 500 µM (final concentration). The DPP-IV IC50 values were determined by plotting the percentage inhibition as a function of the test compound concentration. Each analysis was carried out in triplicate (n = 3).

Compound	Hydrolysis by DPP-IV (stability), in words [1]	Peptide hydrolyzed by DPP-IV [1]	inhibition at 500 µM ([2]; peptide at 500 µM) [%]	IC50 [2] [µM]
CC[C@H](C)[C@H](NC(=O)[C@@H]1CCCN1C(=O)[C@@H](N)Cc1ccccc1)C(=O)O [FPI, Phe-Pro-Ile]	not hydrolyzed by DPP-IV	NO	90.1 ± 1.8	45.2 ± 5.3
CC[C@H](C)[C@H](N)C(=O)N1CCC[C@H]1C(=O)N[C@H](C(=O)O)[C@@H](C)CC [IPI, Ile-Pro-Ile]	–	–	–	3.9 ± 1
CC[C@H](C)[C@H](NC(=O)[C@@H]1CCCN1C(=O)[C@@H](N)Cc1c[nH]c2ccccc12)C(=O)O [WPI, Trp-Pro-Ile]	not hydrolyzed by DPP-IV	NO	–	133 ± 14.7
